The source made the active and inactive calls. No cut-off for these calls is given here.

In this assay the target is T1, Heat shock factor protein 1 (Homo sapiens) (UniProt Q00613).
T1 sequence (whole entry): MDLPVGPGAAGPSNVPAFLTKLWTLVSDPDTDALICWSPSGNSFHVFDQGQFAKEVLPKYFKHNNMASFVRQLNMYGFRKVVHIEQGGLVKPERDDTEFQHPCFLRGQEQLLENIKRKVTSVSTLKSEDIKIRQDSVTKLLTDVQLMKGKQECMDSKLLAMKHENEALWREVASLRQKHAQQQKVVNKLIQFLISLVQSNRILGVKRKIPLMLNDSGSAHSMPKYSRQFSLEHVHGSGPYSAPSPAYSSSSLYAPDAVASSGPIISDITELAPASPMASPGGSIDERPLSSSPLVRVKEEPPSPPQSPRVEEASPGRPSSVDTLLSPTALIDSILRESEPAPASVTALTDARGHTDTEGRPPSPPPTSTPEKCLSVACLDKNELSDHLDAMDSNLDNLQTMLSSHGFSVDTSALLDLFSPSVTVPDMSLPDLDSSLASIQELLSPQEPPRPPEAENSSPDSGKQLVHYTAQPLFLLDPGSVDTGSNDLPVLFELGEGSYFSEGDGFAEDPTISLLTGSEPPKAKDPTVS
Kind of assay: Transcriptional activation of HSF1 in human HeLa cells assessed as granule formation treated for 3 hrs at 37 degC without heat shock by immunocytochemical staining.
Regarding `CS(=O)(=O)NCC(O)CO/N=C(\Cl)c1nc2ccccc2o1` (stereo unspecified), the outcome was inactive.
Under `OC(CO/N=C(/c1nc2ccccc2o1)C(F)(F)F)CN1CCCCC1` (stereo unspecified) stands “inactive”.
With `OC(CO/N=C(\Cl)c1cc2ccccc2o1)CN1CCCCC1` (stereo unspecified), the outcome was inactive.
`Cl/C(=N\OCCCN1CCCCC1)c1nc2ccccc2o1`: the result was inactive.
As for `C/C(=N\OCC(O)CN1CCCCC1)c1nc2ccccc2o1` (stereo unspecified), the outcome was inactive.
Next, `CC(=O)NCC(O)CO/N=C(\Cl)c1nc2ccccc2o1` (stereo unspecified): “inactive”; `OC(CO/N=C(\Cl)c1nc2ccccc2o1)CN1CCOCC1` (stereo unspecified): “inactive”; `O=C(NOCC(O)CN1CCCCC1)c1nc2ccccc2o1` (stereo unspecified): “inactive”.
`OC(CO/N=C/c1nc2ccccc2o1)CN1CCCCC1` (stereo unspecified): the outcome was inactive.
Under `CO/C(=N\OCC(O)CN1CCCCC1)c1nc2ccccc2o1` (stereo unspecified) stands “inactive”; under `OC(CO/N=C(\Cl)c1cc2ccccc2s1)CN1CCCCC1` (stereo unspecified), “inactive”.

Values taken from ChEMBL document CHEMBL1152919, “Chloro-oxime derivatives as novel small molecule chaperone amplifiers” (Bioorg Med Chem Lett, 2009).
